Measured affinities in a library of Ab-14 light chain variants

Source: Engelhart et al. 2022 (doi:10.1038/s41597-022-01779-4), MIT Lincoln Laboratory and A-Alpha Bio; data file from the FLAb repository.

The target is the same throughout: PDVDLGDISGINAS, from the HR2 region of SARS-CoV-2 spike.

The variants keep the heavy chain, the linker and the frameworks of Ab-14 (scFv order VH, the linker GGGGSGGGGSGGGGS, VL).
VH: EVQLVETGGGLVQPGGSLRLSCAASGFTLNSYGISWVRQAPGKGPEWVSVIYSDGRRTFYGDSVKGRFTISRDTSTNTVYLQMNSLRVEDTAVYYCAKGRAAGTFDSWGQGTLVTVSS
VL: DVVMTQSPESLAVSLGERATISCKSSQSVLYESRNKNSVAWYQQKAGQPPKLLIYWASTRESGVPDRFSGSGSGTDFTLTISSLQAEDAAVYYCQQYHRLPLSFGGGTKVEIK

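The parent was found by panning a naive human phage display library on the peptide. The library (AAYL50) carries one to three amino acid substitutions per variant, with no insertions or deletions. Affinity was read by AlphaSeq, a pooled yeast mating assay with surface-displayed partners. The frequency of each diploid, read from paired DNA barcodes, reflects how well the two displayed proteins bind. Scores were corrected for input abundance and mapped to Kd with protein pairs of known affinity run in the same pool. Mating was done three times.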

Substitutions are numbered in sequence along the VL above, starting at 1 (not Kabat). All variants listed here change S62 of the VL, counted from its first residue. Values are log10 of the apparent Kd in nM; lower means stronger binding. "ND" marks a missing value. The strain was present, yet no cells mated with the target were sequenced in that replicate, which points to weak or no binding. Parent in this assay: reference entry 0.65, copy in this library 1.68. Three control strains display no target. For library AAYL50, 18% of the pairings with them gave a signal, with a median of 4.19 and one signal in twenty below 2.99, so weak values seen in few replicates may be background.

- S62W -> 0.55, 1.23, 1.38
- S58A S62A S103T -> ND, ND, ND
- N37G S62A H98E -> 0.77, 1.02, 1.10
- S62Q -> 1.28, 1.33, 1.35
- Q27F K36M S62W -> 0.98, 1.07, 1.06
- L30D N35T S62L -> ND, ND, ND
- S62E L100E -> 1.73, 1.66, 1.89
- K36S S62Q Q95P -> ND, ND, ND
- R60A S62K -> 5.61, 3.77, 5.09
- K24W S62I Q96F -> ND, ND, ND
- N37I S38F S62K -> ND, 5.32, 4.53
- S28V S62C R99T -> 2.43, 2.86, 2.40
- Q27M S58F S62C -> ND, 2.90, ND
- S25A S62E Q95M -> ND, ND, ND
- W56I E61L S62N -> ND, ND, 4.03
- Q27D R60S S62P -> 2.81, 3.08, 2.85
- S62R R99P -> 1.49, 1.46, 1.53
- S62E R99Y S103D -> ND, 2.32, 3.63
- Q27N S62C P101E -> ND, 3.71, ND
- S38M S62E Q95D -> 0.99, 1.90, 2.37
- Q27A S62T -> 0.46, 0.69, 0.25
- A40C S62M -> 4.29, 2.47, 3.38
- N37R R60K S62V -> 2.36, 2.13, 2.47
- E61T S62N L100P -> ND, ND, ND
- E61S S62Y -> ND, ND, ND
- W56L T59R S62T -> 1.98, 2.12, 2.65
- N37V S62A Q96E -> ND, ND, ND
- S25A A40H S62N -> ND, ND, ND
- Y31A S62W R99L -> 1.07, 1.12, 1.16
- S28H Y31T S62A -> 0.53, 0.78, 0.22
- S28L S38M S62H -> ND, ND, ND
- S62T -> ND, ND, ND
- S25G T59L S62N -> 0.85, 1.01, 1.31

Extract of 2 entries:

changes	log10 Kd, replicates
S62Q	1.28, 1.33, 1.35
N37R R60K S62V	2.36, 2.13, 2.47